{"source": "patent US20230174946A1", "about": "“ORGAN INFECTION MODELS” (priority 2020, published 2023)", "origin": "cited, not measured here", "molecules": {"B1": {"name": "IFNB1: known anti-viral cytokine; Type 1 interferon; stock provided by Dr. Jay Kolls (protein, UniProt P01574 22-187, looked up)", "Interferon beta": "MSYNLLGFLQRSSNFQCQKLLWQLNGRLEYCLKDRMNFDIPEEIKQLQQFQKEDAALTIYEMLQNIFAIFRQDSSSTGWNETIVENLLANVYHQINHLKTVLEEKLEKEDFTRGKLMSSLHLKRYYGRILHYLKAKEYSHCAWTIVRVEILRNFYFINRLTGYLRN"}}, "system": "coxsackievirus", "details": "dose-dependent; previous study; cited from earlier work", "data": [{"molecule": "B1", "values": [{"measurement": "effect on coxsackievirus proliferation in vitro", "result": "significantly reduce coxsackievirus proliferation"}]}]}
